Laboratory results published in paper PMC12535493, “Assessment of Intramuscular Verapamil as Pharmacological Countermeasure in a Rat Model of Organophosphate DFP-induced Status Epilepticus” (2025).

Tested on: rats
Test: Tolerability of i.m. VPM (pilot doses; distress and discomfort grading)

## COc1ccc(CCN(C)CCCC(C#N)(c2ccc(OC)c(OC)c2)C(C)C)cc1OC (stereo not drawn)
10 mg/kg i.m. b.i.d. 3 days
  Ambulatory deficits: No ambulatory deficits
10 and 20 mg/kg, i.m., 1 h after DFP-SE, rats (n = 5)
  Tolerability of pilot doses: safely tolerated both doses
Last day of i.m. injections, 10 mg/kg b.i.d. 3 days, resolved without intervention
  Distress and discomfort grade (none, mild, moderate, severe): Mild discomfort
